Laboratory results as given in patent US20230340011A1 (Asteroid Therapeutics, priority 2022, published 2023).
Read-outs that look alike come from different tables or passages of the source.

By UniProt entry, the sequences of proteins in these tests, tags left out.
UniProt P55055, whole entry: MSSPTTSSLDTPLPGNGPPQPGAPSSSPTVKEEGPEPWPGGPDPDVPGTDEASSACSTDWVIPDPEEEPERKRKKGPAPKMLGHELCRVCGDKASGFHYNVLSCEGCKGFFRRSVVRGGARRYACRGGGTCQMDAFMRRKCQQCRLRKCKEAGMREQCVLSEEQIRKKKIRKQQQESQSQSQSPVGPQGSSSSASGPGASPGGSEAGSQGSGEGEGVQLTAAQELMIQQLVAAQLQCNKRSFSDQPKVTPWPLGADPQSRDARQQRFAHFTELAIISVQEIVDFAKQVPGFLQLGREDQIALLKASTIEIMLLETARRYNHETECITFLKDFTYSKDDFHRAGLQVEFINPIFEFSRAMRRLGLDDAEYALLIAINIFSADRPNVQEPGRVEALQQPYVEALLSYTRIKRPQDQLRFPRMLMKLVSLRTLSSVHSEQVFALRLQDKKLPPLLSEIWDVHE

Columns and labels:
[1] = molecular target: SREBP-2 (Homo sapiens (Human), UniProt Q12772); assay: In vitro assay SREBP-2: PathHunter U2OS SREBP-2 Nuclear Translocation Cell Line, U18666A-stimulated; type: cell-based; conditions: read-out: SREBP-2 IC50
[2] = molecular target: LXRβ (Homo sapiens (Human), UniProt P55055); assay: In vitro assay LXRβ: PathHunter NHR CHO cells, LXRβ / Steroid Receptor Co-activator Peptide enzyme fragment complementation; type: cell-based
Procedure: PathHunter NHR CHO cells stably transfected with tagged full-length human LXRβ and a nuclear fusion protein containing Steroid Receptor Co-activator Peptide (SRCP). The full-length human LXRβ was tagged with the ProLink™ component of the DiscoverX Enzyme Fragment Complementation (EFC) system and the SRCP domain is fused to the enzyme acceptor component (EA) expressed in the nucleus. Cells were seeded in a total volume of 20 μL into white walled, 384-well microplates and incubated at 37° C. overnight prior to testing. Assay media contained charcoal-dextran filtered serum to reduce the level of hormones present. Final assay vehicle concentration was 1%. […] Microplates were read following signal generation with a PerkinElmer Envision instrument for chemiluminescent signal detection.

C[C@H](CCC(=O)N1CCC(O)(C2CCCCC2)CC1)[C@H]1CC[C@H]2[C@@H]3CC=C4C[C@@H](O)CC[C@]4(C)[C@H]3CC[C@]12C [Example 507, (R)-1-(4-cyclohexyl-4-hydroxypiperidin-1-yl)-4-((3S,8S,9S,10R,13R,14S,17R)-3-hydroxy-10,13-dimethyl-2,3,4,7,8,9,10,11,12,13,14,15,16,17-tetradecahydro-1H-cyclopenta[a]phenanthren-17-yl)pentan-1-one]
IC50 [1]: < 0.25 µM

C[C@H](CCC(=O)Nc1ccncc1)[C@H]1CC[C@H]2[C@@H]3CC=C4C[C@@H](O)CC[C@]4(C)[C@H]3CC[C@]12C [Example 547, (4R)-4-[(1R,3aS,3bS,7S,9aR,9bS,11aR)-7-hydroxy-9a,11a-dimethyl-1H,2H,3H,3aH,3bH,4H,6H,7H,8H,9H,9aH,9bH,10H,11H,11aH-cyclopenta[a]phenanthren-1-yl]-N-(pyridin-4-yl)pentanamide]
IC50 [1]: < 0.25 µM

C[C@H](CCC(=O)N1CCC(C)(O)CC1)[C@H]1CC[C@H]2[C@@H]3CC=C4C[C@@H](O)CC[C@]4(C)[C@H]3CC[C@]12C [Example 6, (R)-4-((3S,8S,9S,10R,13R,14S,17R)-3-hydroxy-10,13-dimethyl-2,3,4,7,8,9,10,11,12,13,14,15,16,17-tetradecahydro-1H-cyclopenta[a]phenanthren-17-yl)-1-(4-hydroxy-4-methylpiperidin-1-yl)pentan-1-one]
IC50 ([1]; PathHunter U2OS SREBP-2 nuclear translocation cells, U18666A 10 μM, overnight (16 hours)): < 0.25 µM

C=CC1(O)CCN(C(=O)CC[C@@H](C)[C@H]2CC[C@H]3[C@@H]4CC=C5C[C@@H](O)CC[C@]5(C)[C@H]4CC[C@]23C)CC1 [Example 146, (R)-4-((3S,8S,9S,10R,13R,14S,17R)-3-hydroxy-10,13-dimethyl-2,3,4,7,8,9,10,11,12,13,14,15,16,17-tetradecahydro-1H-cyclopenta[a]phenanthren-17-yl)-1-(4-hydroxy-4-vinylpiperidin-1-yl) pentan-1-one]
EC50 [2]: < 0.25 µM

C[C@H](CCC(=O)N1CCOCC1)[C@H]1CC[C@H]2[C@@H]3CC=C4C[C@@H](O)CC[C@]4(C)[C@H]3CC[C@]12C [Example 7, (R)-4-((3S,8S,9S,10R,13R,14S,17R)-3-hydroxy-10,13-dimethyl-2,3,4,7,8,9,10,11,12,13,14,15,16,17-tetradecahydro-1H-cyclopenta[a]phenanthren-17-yl)-1-morpholinopentan-1-one]
EC50 ([2]; PathHunter NHR CHO cells, full-length human LXRβ and SRCP, chemiluminescent signal, read-out: LXRβ PPI): 1 to 10 µM

C[C@H](CCC(=O)N1CCN(C(N)=O)CC1)[C@H]1CC[C@H]2[C@@H]3CC=C4C[C@@H](O)CC[C@]4(C)[C@H]3CC[C@]12C [Example 4, 4—((R)-4-((3S,8S,9S,10R,13R,14S,17R)-3-hydroxy-10,13-dimethyl-2,3,4,7,8,9,10,11,12,13,14,15,16,17-tetradecahydro-1H-cyclopenta[a]phenanthren-17-yl)pentanoyl)piperazine-1-carboxamide]
EC50 [2]: > 10 µM

CC#CC1(O)CCN(C(=O)CC[C@@H](C)[C@H]2CC[C@H]3[C@@H]4CC=C5C[C@@H](O)CC[C@]5(C)[C@H]4CC[C@]23C)CC1 [Example 90, (R)-4-((3S,8S,9S,10R,13R,14S,17R)-3-hydroxy-10,13-dimethyl-2,3,4,7,8,9,10,11,12,13,14,15,16,17-tetradecahydro-1H-cyclopenta[a]phenanthren-17-yl)-1-(4-hydroxy-4-(prop-1-yn-1-yl)piperidin-1-yl)pentan-1-one]
EC50 [2]: 0.25 to 1 µM

COc1cccnc1CC[C@@H](C)[C@H]1CC[C@H]2[C@@H]3CC=C4C[C@@H](O)CC[C@]4(C)[C@H]3CC[C@]12C [Example 186, (1R,3aS,3bS,7S,9aR,9bS,11aR)-1-[(2R)-4-(3-methoxypyridin-2-yl)butan-2-yl]-9a,11a-dimethyl-1H,2H,3H,3aH,3bH,4H,6H,7H,8H,9H,9aH,9bH,10H,11H,11aH-cyclopenta[a]phenanthren-7-ol]
EC50 ([2]; read-out: LXRβ PPI): < 0.25 µM

CCC1(O)CCN(C(=O)CC[C@@H](C)[C@H]2CC[C@H]3[C@@H]4CC=C5C[C@@](C)(O)CC[C@]5(C)[C@H]4CC[C@]23C)CC1 [Example 371, (R)-1-(4-ethyl-4-hydroxypiperidin-1-yl)-4-((3S,8S,9S,10R,13R,14S,17R)-3-hydroxy-3,10,13-trimethyl-2,3,4,7,8,9,10,11,12,13,14,15,16,17-tetradecahydro-1H-cyclopenta[a]phenanthren-17-yl)pentan-1-one]
EC50 ([2]; read-out: LXRβ PPI): < 0.25 µM

C[C@H](CCC(=O)N1CCC(C)(CN2CCOC(C)(C)C2=O)CC1)[C@H]1CC[C@H]2[C@@H]3CC=C4C[C@@H](O)CC[C@]4(C)[C@H]3CC[C@]12C [Example 523, 4-((1-((R)-4-((3S,8S,9S,10R,13R,14S,17R)-3-hydroxy-10,13-dimethyl-2,3,4,7,8,9,10,11,12,13,14,15,16,17-tetradecahydro-1H-cyclopenta[a]phenanthren-17-yl)pentanoyl)-4-methylpiperidin-4-yl)methyl)-2,2-dimethylmorpholin-3-one]
EC50 ([2]; read-out: LXRβ PPI): 0.25 to 1 µM

C[C@H](CCC(=O)N1CCNCC1)[C@H]1CC[C@H]2[C@@H]3CC=C4C[C@@H](O)CC[C@]4(C)[C@H]3CC[C@]12C [Example 2, (R)-4-((3S,8S,9S,10R,13R,14S,17R)-3-hydroxy-10,13-dimethyl-2,3,4,7,8,9,10,11,12,13,14,15,16,17-tetradecahydro-1H-cyclopenta[a]phenanthren-17-yl)-1-(piperazin-1-yl) pentan-1-one]
EC50 [2]: 1 to 10 µM

C[C@H](CCC(=O)N1CCCO1)[C@H]1CC[C@H]2[C@@H]3CC=C4C[C@@H](O)CC[C@]4(C)[C@H]3CC[C@]12C [Example 33, (R)-4-((3S,8S,9S,10R,13R,14S,17R)-3-hydroxy-10,13-dimethyl-2,3,4,7,8,9,10,11,12,13,14,15,16,17-tetradecahydro-1H-cyclopenta[a]phenanthren-17-yl)-1-(isoxazolidin-2-yl)pentan-1-one]
EC50 [2]: 0.25 to 1 µM

CCCCC1(O)CCN(C(=O)CC[C@@H](C)[C@H]2CC[C@H]3[C@@H]4CC=C5C[C@@H](O)CC[C@]5(C)[C@H]4CC[C@]23C)CC1 [Example 92, (R)-1-(4-butyl-4-hydroxypiperidin-1-yl)-4-((3S,8S,9S,10R,13R,14S,17R)-3-hydroxy-10,13-dimethyl-2,3,4,7,8,9,10,11,12,13,14,15,16,17-tetradecahydro-1H-cyclopenta[a]phenanthren-17-yl)pentan-1-one]
EC50 [2]: 0.25 to 1 µM

C[C@H](CCC(=O)N(C)OCC1CC1)[C@H]1CC[C@H]2[C@@H]3CC=C4C[C@@H](O)CC[C@]4(C)[C@H]3CC[C@]12C [Example 41, (R)—N-(cyclopropylmethoxy)-4-((3S,8S,9S,10R,13R,14S,17R)-3-hydroxy-10,13-dimethyl-2,3,4,7,8,9,10,11,12,13,14,15,16,17-tetradecahydro-1H-cyclopenta[a]phenanthren-17-yl)-N-methylpentanamide]
EC50 [2]: 1 to 10 µM

C[C@H](CCC(=O)N1CCC(O)(c2ccncc2)CC1)[C@H]1CC[C@H]2[C@@H]3CC=C4C[C@@H](O)CC[C@]4(C)[C@H]3CC[C@]12C [Example 344, (R)-4-((3S,8S,9S,10R,13R,14S,17R)-3-hydroxy-10,13-dimethyl-2,3,4,7,8,9,10,11,12,13,14,15,16,17-tetradecahydro-1H-cyclopenta[a]phenanthren-17-yl)-1-(4-hydroxy-4-(pyridin-4-yl)piperidin-1-yl)pentan-1-one]
EC50 [2]: > 10 µM
